Drawing on PMC13108567 (2026), this text covers EC50 for one molecule.

The chains behind the UniProt entries cited, without tags or fusion partners. Residues count along the entry.
UniProt Q15116, 25-288: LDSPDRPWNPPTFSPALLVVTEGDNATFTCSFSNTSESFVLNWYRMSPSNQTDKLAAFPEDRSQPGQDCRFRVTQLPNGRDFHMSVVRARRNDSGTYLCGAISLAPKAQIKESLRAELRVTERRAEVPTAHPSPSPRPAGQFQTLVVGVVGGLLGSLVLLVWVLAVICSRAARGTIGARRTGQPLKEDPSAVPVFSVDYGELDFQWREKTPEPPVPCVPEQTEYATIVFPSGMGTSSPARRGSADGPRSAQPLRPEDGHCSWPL

This test has as its target human programmed cell death protein 1 on PD-1 hi transgenic Jurkat cells (human, UniProt Q15116 25-288). Kind of test: FACS. A general note: A flow cytometer gives signals particle by particle.

As a reminder, the EC50 is the concentration giving half of the maximal effect. High values mean a need for much substance, low ones an effect from little substance.

B1: anti-PD-1 monoclonal antibody clone 135c139d6, IgG1 (antibody, V domains shown)
VH: EVQLVQSGAEVKKPGESLKISCKGSGYSFTNFYIHWVRQAPGQRLEWMGSIYPNYGDTAYNQKFKDRFVFSLDTSVSTAYLQISSLKAEDTAVYYCARGYSYAMDYWGQGTTVTVSS
VL: DIQMTQSPSSVSASVGDRVTITCSASQGISGDLNWYQQKPGKAPKLLIYHTSSLHSGVPSRFSGSGSGTDFTLTISSLQPEDFATYYCQYYSKDLLTFGGGTKLEIK
modifications: biotin (only in the competitive assay)
B1 yielded a concentration for a half-maximal effect (EC50) of 12.3 nM. This lies in the double-digit nanomolar range.
